Columns and labels:
Homo sapiens [1] = species: Homo sapiens; experiment: Selectivity ratio of Ki for human recombinant adenosine A3 receptor to Ki for human recombinant adenosine receptor A2a
Homo sapiens [2] = species: Homo sapiens; experiment: Selectivity ratio of Ki for human recombinant adenosine receptor A2b to Ki for human recombinant adenosine receptor A2a

Ratio Ki (Homo sapiens [1]): 773 | Ratio Ki (Homo sapiens [2]): 48
SMILES: Cc1cc(Cn2nnc3c(-c4ccco4)nc(N)nc32)ccc1N [VIPADENANT]
